## Measured affinities in a library of Ab-14 heavy chain variants

Values reported by Engelhart et al. 2022, doi:10.1038/s41597-022-01779-4 (FLAb copy).

The target is the same throughout: PDVDLGDISGINAS, from the HR2 region of SARS-CoV-2 spike.

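The starting antibody came from a phage panning campaign against this peptide. In library AAYL49, one, two or three CDR residues were substituted; doubles and triples were drawn at random. Affinity was read by AlphaSeq, a pooled yeast mating assay with surface-displayed partners. After mating in shaken culture at 30 °C for 16 h, diploids were selected and their barcode pairs sequenced. Read counts were normalised to the haploid input and turned into Kd by a linear fit to BCL2-family pairs of known affinity, for each replicate. The assay was run in three technical replicates.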

The variants keep the light chain, the linker and the frameworks of Ab-14 (scFv order VH, a (GGGGS)3 linker, VL).
VH: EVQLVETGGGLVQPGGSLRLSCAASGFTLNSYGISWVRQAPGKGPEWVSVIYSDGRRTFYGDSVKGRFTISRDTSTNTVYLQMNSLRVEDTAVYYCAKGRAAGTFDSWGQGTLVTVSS
VL: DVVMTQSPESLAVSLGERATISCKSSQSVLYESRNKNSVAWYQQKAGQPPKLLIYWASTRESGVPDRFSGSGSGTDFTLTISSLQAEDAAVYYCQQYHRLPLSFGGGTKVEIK

Each variant is given by its three heavy chain CDRs, as the data file delimits them; those of the parent are GFTLNSYGIS, VIYSDGRRTFYGDSVK, GRAAGTFDS. Affinities are written as log10 Kd with Kd in nM; a lower number is a better binder. Replicates are averaged; those with no signal do not enter the mean. Where no diploid with the target was found in that replicate, the entry reads "nd": below detection, most likely a poor binder, though not proof of it. For reference, the parent read 0.65 as the reference entry and 4.11 (one replicate of three) as a member of this library.

CDR-H1,CDR-H2,CDR-H3,"replicates, log10 nM","mean, log10 nM",signal with controls
GFTLNSYGIS,IGYSDGRRTLYGDSVK,GRAAGTFDS,nd / nd / nd,nd,3/9 (3.54)
GFTLNIYGIS,VIYSDGRRTFYGDSKW,GRAAGTFDS,4.64 / nd / 6.42,5.53,5/9 (4.33)
GFTLNSYGIS,VQYSDGRRTDYGDSVK,GRCAGTFDS,4.53 / 5.34 / nd,4.93,4/9 (4.75)
GFTLNSYGKS,VIYSDGRRTFYGDSVK,GLAAGTFDS,nd / nd / nd,nd,1/9 (2.73)
EFTLNSYGIS,VIYSDGRRTFYGDSVK,WRAAGTFCS,1.51 / 1.42 / 1.63,1.52,3/9 (4.20)
GFTLNSYGIS,VIYQDGRRTFYGDSVK,GRAAGDFDS,nd / nd / nd,nd,1/9 (3.48)
GFRLNSYGIS,VIYSDGRCTFYGDSVK,GRAAGTFCS,nd / nd / nd,nd,1/9 (3.84)
GFTLNMYGIS,VIYSDGRRTFLGDWVK,GRAAGTFDS,nd / nd / nd,nd,1/9 (3.23)
GFTLNSYGIS,VIYSDGRRTFYGDSVS,GRATGTFDS,nd / 4.05 / nd,4.05,0/9
GFTLRSYGIS,VIYEDGRHTFYGDSVK,GRAAGTFDS,nd / nd / nd,nd,0/9
GFTLNSYGIS,VIYSDGRRTFYGDSVK,PRAAGTVCS,nd / nd / nd,nd,0/9
GFTLNSYGIS,TIYSDNPRTFYGDSVK,GRAAGTFDS,nd / 3.68 / nd,3.68,0/9
GFTLNSYGIS,VIYSDGRRTFYGDMVT,GRAAGTFDW,nd / nd / nd,nd,0/9
GFTLNSYGIS,VIYSDGARTFYGDSVK,GRAAGTIDS,3.19 / 3.65 / nd,3.42,0/9
GMTLNHYGIS,GIYSDGRRTFYGDSVK,GRAAGTFDS,nd / nd / nd,nd,0/9
GFTLVSYGIS,CIYSDGRRTFYGDSVK,FRAAGTFDS,3.91 / 3.16 / 6.07,4.38,5/9 (4.14)
GITLNSQGIS,VIYSDGRRTFYGDCVK,GRAAGTFDS,nd / nd / nd,nd,0/9
GRTLNSYGIS,VIYSDGRRTFYGDSVK,GRAAGTYDS,2.04 / 2.14 / 2.52,2.23,1/9 (2.67)
GFTINSYGIS,VIYSDGRRTFYGDSVK,GRWAGTFRS,5.51 / nd / nd,5.51,1/9 (2.73)
YFTLNSYGIS,VFYSDGRRTFYPDSVK,GRAAGTFDS,nd / nd / 4.52,4.52,0/9
GVTLNSYGCS,VIYSDGRRTFYGDSVK,GRAAGTFDS,nd / nd / nd,nd,0/9
GFTLNSEGIS,VIYSDGRRTFYGDSVK,ARAAGDFDS,nd / nd / nd,nd,0/9
GFTLNSYGLS,VIYSDGRRTFYGDSVK,GRAAGTFVM,nd / nd / 3.41,3.41,0/9
GATLNSYGIC,VIYSDGRRTFYGDSVK,GRAAGTFDD,nd / nd / nd,nd,0/9
GFILLSSGIS,VIYSDGRRTFYGDSVK,GRAAGTFDS,nd / nd / nd,nd,0/9
GFTLNYYGIS,VIYNDGRRTFYGFSVK,GRAAGTFDS,nd / nd / nd,nd,2/9 (3.44)
GFTLNSYGES,VIYSPGPRTFYGDSVK,GRAAGTFDS,nd / nd / nd,nd,1/9 (3.35)
GFTLNSYVIS,VIYSFGRRTFYGDSVK,GRAADTFDS,nd / nd / nd,nd,0/9
GFTLNSYGIS,HDYSDGRETFYGDSVK,GRAAGTFDS,6.63 / 4.05 / 4.85,5.18,4/9 (4.21)
GFTLNSYGIS,VIYSDGRRTFYDESVV,GRAAGTFDS,1.10 / 1.29 / 1.43,1.27,0/9
GFTLNSYQIS,WIYSDGRRTFYGDSVK,GRAADTFDS,5.09 / 4.56 / 4.28,4.64,7/9 (4.09)
GFTLNSYGIM,VIYSDGRRTFYGDSVG,GRAAGTFFS,nd / nd / 4.12,4.12,2/9 (4.25)
GFTLNSYGIS,GIYSDGRRTFYNDSVK,GRAHGTFDS,nd / 5.21 / 5.00,5.11,8/9 (4.37)
GFTLNSYGVS,VIYSDGRFTFYGDDVK,GRAAGTFDS,nd / 3.48 / 5.52,4.50,3/9 (4.57)
GFWLNSYGIS,VIYSNGRRVFYGDSVK,GRAAGTFDS,nd / nd / nd,nd,0/9
GFTLNSYGIS,VIYSDGRRTFYGDSVK,VRAAGTFDS,nd / nd / nd,nd,1/9 (3.30)
GFTLNSYGIS,VIYSIARRTFYGDSVK,GRAAGTFIS,nd / nd / nd,nd,1/9 (3.18)
GFTLNSYGQS,VMYSDGRRTFYGDSVK,GRAAGTGDS,nd / 4.52 / 3.55,4.03,3/9 (4.76)

The first 5 entries again:

CDR-H1,CDR-H2,CDR-H3,"replicates, log10 nM","mean, log10 nM",signal with controls
GFTLNSYGIS,IGYSDGRRTLYGDSVK,GRAAGTFDS,nd / nd / nd,nd,3/9 (3.54)
GFTLNIYGIS,VIYSDGRRTFYGDSKW,GRAAGTFDS,4.64 / nd / 6.42,5.53,5/9 (4.33)
GFTLNSYGIS,VQYSDGRRTDYGDSVK,GRCAGTFDS,4.53 / 5.34 / nd,4.93,4/9 (4.75)
GFTLNSYGKS,VIYSDGRRTFYGDSVK,GLAAGTFDS,nd / nd / nd,nd,1/9 (2.73)
EFTLNSYGIS,VIYSDGRRTFYGDSVK,WRAAGTFCS,1.51 / 1.42 / 1.63,1.52,3/9 (4.20)

As a blank, each scFv also met three strains without target: over library AAYL49, 15% of these pairings were detected, typically at 4.06 and seldom below 2.83. The control count says in how many pairings with the empty strains this scFv gave a signal, with their mean in brackets.